Molecular target: 5-hydroxytryptamine receptor 1B (Rattus norvegicus, UniProt P28564)
Assay: Binding affinity against 5-hydroxytryptamine 1B receptor in rat striatal membranes using [3H]5-HT as radioligand
Type: cell membranes, Striatum, Membrane

Chains of the proteins cited; added tags and fusions are not shown.
UniProt P28564, whole entry: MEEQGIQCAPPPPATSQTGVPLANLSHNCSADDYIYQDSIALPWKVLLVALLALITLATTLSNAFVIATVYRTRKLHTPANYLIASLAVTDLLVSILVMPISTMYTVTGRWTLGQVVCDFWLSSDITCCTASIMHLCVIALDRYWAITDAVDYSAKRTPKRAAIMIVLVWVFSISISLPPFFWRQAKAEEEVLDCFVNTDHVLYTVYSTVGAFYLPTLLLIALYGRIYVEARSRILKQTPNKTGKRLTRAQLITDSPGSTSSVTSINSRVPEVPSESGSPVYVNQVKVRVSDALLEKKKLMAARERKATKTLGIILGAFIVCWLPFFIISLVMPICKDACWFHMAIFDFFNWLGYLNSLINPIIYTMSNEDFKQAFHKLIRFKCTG

CCCN(CCC)C1CCc2cccc(O)c2C1 (stereo unspecified) [8-OH-DPAT]
Ki: > 10 µM

Reference: ChEMBL document CHEMBL1127118 (Bioorg Med Chem Lett, 1993)
